{"sequences": {"note": "The chains behind the UniProt entries cited, without tags or fusion partners. Residues count along the entry.", "UniProt P22309, 26-533": "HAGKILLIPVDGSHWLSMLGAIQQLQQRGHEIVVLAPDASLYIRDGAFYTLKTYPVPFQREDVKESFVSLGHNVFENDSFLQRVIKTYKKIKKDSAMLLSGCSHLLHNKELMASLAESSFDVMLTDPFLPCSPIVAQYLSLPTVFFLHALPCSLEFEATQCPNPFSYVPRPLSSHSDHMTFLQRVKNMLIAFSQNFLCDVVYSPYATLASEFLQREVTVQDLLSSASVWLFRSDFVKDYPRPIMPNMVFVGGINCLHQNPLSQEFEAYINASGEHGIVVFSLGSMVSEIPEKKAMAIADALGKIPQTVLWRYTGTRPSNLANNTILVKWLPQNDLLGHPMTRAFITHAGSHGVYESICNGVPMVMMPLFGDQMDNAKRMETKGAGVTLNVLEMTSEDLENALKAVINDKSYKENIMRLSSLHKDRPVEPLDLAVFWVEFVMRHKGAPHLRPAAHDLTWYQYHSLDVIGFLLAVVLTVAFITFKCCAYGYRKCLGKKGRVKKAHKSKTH", "UniProt P19224, 27-532": "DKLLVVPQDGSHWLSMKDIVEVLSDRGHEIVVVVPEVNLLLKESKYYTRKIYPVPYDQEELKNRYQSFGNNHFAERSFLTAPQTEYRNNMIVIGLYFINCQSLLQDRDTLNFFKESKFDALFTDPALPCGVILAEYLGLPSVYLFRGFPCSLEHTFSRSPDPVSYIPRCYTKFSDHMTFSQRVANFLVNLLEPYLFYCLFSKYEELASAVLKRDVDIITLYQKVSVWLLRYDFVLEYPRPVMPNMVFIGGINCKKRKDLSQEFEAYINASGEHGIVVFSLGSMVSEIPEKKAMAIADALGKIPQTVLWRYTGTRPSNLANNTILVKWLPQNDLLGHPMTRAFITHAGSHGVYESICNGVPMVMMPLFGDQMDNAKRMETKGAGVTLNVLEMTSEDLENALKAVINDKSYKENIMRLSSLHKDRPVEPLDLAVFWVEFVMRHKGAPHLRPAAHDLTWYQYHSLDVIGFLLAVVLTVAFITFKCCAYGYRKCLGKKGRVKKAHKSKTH"}, "source": "patent US20080293048A1", "about": "“METHODS AND KITS BASED ON UGT1A7 PROMOTER POLYMORPHISM” (priority 2004, published 2008)", "key": {"UGT1A7": {"target": "T1, UGT1A7 (Homo sapiens, UniProt Q9HAW7)", "T1 sequence (Q9HAW7 26-530)": "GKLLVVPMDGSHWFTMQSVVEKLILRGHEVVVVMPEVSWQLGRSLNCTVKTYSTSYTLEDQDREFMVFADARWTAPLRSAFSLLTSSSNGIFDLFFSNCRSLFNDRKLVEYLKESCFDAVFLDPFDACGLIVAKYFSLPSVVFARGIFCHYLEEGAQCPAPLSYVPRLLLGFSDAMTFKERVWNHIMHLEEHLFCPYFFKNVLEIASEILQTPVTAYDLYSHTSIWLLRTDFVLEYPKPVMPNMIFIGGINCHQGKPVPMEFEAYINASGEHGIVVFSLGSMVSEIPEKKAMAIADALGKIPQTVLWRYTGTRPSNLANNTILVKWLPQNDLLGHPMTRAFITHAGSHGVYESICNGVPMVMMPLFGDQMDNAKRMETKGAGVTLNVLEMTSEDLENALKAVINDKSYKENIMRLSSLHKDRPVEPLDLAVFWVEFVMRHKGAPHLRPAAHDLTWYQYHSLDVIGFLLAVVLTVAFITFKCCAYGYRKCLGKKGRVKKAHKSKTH"}, "UGT1A1": {"target": "UGT1A1 (Homo sapiens, UniProt P22309)"}, "UGT1A6": {"target": "UGT1A6 (Homo sapiens, UniProt P19224)"}, "UGT1A10": {"target": "UGT1A10 (Homo sapiens, UniProt Q9HAW8)"}}}
{"smiles": "CCc1c2c(nc3ccc(O)cc13)-c1cc3c(c(=O)n1C2)COC(=O)[C@]3(O)CC", "note": "[SN-38, 7-ethyl-10-hydroxycamptothecin]", "values": [{"measurement": "SN-38 glucuronidation by isoform", "setting": "UGT1A7", "value": "relevant isoforms"}, {"measurement": "specific UGT activity with SN-38, UGT1A7 higher than UGT1A1, UGT1A6 and UGT1A10", "setting": "UGT1A7", "value": 5, "unit": "fold"}, {"measurement": "SN-38 glucuronidation by isoform", "setting": "UGT1A1", "value": "relevant isoforms"}, {"measurement": "SN-38 glucuronidation by isoform", "setting": "UGT1A6", "value": "relevant isoforms"}, {"measurement": "SN-38 glucuronidation by isoform", "setting": "UGT1A10", "value": "relevant isoforms"}]}
